Results published in paper PMC12427844, “Uncovering Novel DPP-IV Inhibitory Peptides from Amphibian (Lithobates catesbeiana) Skin via Peptidomics and Molecular Simulation” (Foods, 2025).

Protein sequences, listed by entry. Tags and fused reporters are not part of them.
UniProt P27487, whole entry, species assumed: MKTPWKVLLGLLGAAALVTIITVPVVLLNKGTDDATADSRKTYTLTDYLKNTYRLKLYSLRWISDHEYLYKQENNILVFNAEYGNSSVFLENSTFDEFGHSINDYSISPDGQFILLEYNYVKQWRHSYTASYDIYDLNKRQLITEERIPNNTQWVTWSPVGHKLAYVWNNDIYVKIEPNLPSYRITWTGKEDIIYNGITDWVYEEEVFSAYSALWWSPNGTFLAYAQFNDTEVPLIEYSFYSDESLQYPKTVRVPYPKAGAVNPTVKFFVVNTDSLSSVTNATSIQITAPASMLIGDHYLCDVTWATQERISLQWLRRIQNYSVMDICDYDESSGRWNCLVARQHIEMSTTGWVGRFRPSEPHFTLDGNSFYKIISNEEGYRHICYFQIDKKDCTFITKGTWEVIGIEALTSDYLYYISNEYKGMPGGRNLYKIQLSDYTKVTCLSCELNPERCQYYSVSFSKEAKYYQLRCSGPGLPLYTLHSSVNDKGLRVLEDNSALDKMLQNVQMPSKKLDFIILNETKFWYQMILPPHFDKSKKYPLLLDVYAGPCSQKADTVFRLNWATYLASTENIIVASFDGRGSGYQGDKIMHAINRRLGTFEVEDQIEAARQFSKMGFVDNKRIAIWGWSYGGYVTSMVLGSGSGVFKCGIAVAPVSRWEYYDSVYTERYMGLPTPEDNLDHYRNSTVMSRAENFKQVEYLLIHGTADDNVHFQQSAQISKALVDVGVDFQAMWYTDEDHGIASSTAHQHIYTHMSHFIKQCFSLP

Target: DPP-IV (Homo sapiens, UniProt P27487)
Test: DPP-IV inhibition assay (Gly-Pro p-nitroanilide substrate, absorbance 405 nm)
Type: biochemical
Conditions: positive control
Protocol: The inhibitory effect of LSGHs on DPP-IV enzyme activity was determined according to the method described by Zheng et al.. Briefly, 80 μL of 0.5 mM p-nitroanilide substrate solution was mixed with 80 μL of peptide solution (final concentration: 0.8 mg/mL). The mixture was incubated at 37 °C for 10 min, followed by the addition of 40 μL of DPP-IV enzyme solution (0.8 U/μL). The absorbance at 405 nm was monitored every 2 min for 90 min. All reaction components were prepared in Tris-HCl buffer (100 mM, pH 8.0). A control reaction was prepared by replacing the peptide solution with Tris-HCl buffer. The experiment was repeated three times. The DPP-IV inhibition rate was calculated using the following formula:
DPP-IV inhibition rate (%) = (Slope of control group—Slope of sample group) × 100/Slope of control group.Slope = (A2 − A1)/(T2 − T1). where Slope represents the slope of the change in absorbance values A1 and A2 at two time points T1 and T2 within the linear range.

CC[C@H](C)[C@H](N)C(=O)N1CCC[C@H]1C(=O)N[C@H](C(=O)O)[C@@H](C)CC [IPI]
IC50: 15.9 µM
